Assay results from patent publication US20250288697A1.
Like-named read-outs stand apart in the source and are kept apart here.

Tests used:
Macaque TNFα (macaque) = Macaque TNFα (macaque) (UniProt P48094); experiment: SPR (Biacore T200), antibody captured through Fc, TNFα as analyte, 25 C
Porcine TNFα (porcine) = Porcine TNFα (porcine) (UniProt P23563); experiment: as above
Canine TNFα (canine) = Canine TNFα (canine) (UniProt P51742); experiment: as above
[1] = target: transmembrane TNFα on CHO/DG44-tm TNFα cells; experiment: cell-based or functional assay
[2] = target: recombinant rat TNFα (rat) (UniProt P16599); experiment: SPR (Biacore T200), antibody captured through Fc, TNFα as analyte, 25 C; ka and kd ND
Rabbit TNFα (rabbit) = Rabbit TNFα (rabbit) (UniProt P04924); experiment: as above
[3] = target: transmembrane TNFα on CHO/DG44-tm TNFα cells; experiment: cell-based or functional assay; remark: listed apart in the source

Row | Kd (Macaque TNFα (macaque)) | Kd (Porcine TNFα (porcine)) | Kd (Canine TNFα (canine)) | ADCC, % target cell lysis: Bottom (% target cell lysis) [1] | ADCC, % target cell lysis: Span (% target cell lysis) [1] | ADCC, % target cell lysis: Top (% target cell lysis) [1] | ADCC: EC50 [1] | ADCC: LogEC50 [1] | CDC, % target cell lysis: Span (% target cell lysis) [1] | CDC, % target cell lysis: Top (% target cell lysis) [1] | CDC: EC50 [1] | CDC: LogEC50 [1] | Kd [2] | Kd (Rabbit TNFα (rabbit)) | CDC: EC50 [3] | CDC, % target cell lysis: Bottom (% target cell lysis) [1] | Substance
1 | 0.772 nM | 2.17 nM | 1.49 nM | -2.72 | 49.5 | 46.7 | 0.0129 µg/mL | -1.89 | 92.1 | 96.7 | 0.758 µg/mL | -0.12 | 681 nM | 528 nM | 0.44 µg/mL |  | Adalimumab (commercial adalimumab antibody, HUMIRA)
2 | 0.72 nM | 2.05 nM | 1.54 nM | -3.47 | 33.7 | 30.3 | 0.0168 µg/mL | -1.77 | 86.2 | 89.3 | 8.41 µg/mL | 0.925 | 726 nM | 614 nM |  | 3.1 | Vectorized adalimumab IgG (full-length adalimumab expressed from pAAV.CAG.adalimumab.IgG / AAV8.CAG.adalimumab.IgG) (antibody)
